Source: paper PMC6934599, “Phenoxyethyl Piperidine/Morpholine Derivatives as PAS and CAS Inhibitors of Cholinesterases: Insights for Future Drug Design” (Scientific Reports, 2019)
pIC50: −log10 of the molar value.

The chains behind the UniProt entries cited, without tags or fusion partners.
UniProt P81908, whole entry: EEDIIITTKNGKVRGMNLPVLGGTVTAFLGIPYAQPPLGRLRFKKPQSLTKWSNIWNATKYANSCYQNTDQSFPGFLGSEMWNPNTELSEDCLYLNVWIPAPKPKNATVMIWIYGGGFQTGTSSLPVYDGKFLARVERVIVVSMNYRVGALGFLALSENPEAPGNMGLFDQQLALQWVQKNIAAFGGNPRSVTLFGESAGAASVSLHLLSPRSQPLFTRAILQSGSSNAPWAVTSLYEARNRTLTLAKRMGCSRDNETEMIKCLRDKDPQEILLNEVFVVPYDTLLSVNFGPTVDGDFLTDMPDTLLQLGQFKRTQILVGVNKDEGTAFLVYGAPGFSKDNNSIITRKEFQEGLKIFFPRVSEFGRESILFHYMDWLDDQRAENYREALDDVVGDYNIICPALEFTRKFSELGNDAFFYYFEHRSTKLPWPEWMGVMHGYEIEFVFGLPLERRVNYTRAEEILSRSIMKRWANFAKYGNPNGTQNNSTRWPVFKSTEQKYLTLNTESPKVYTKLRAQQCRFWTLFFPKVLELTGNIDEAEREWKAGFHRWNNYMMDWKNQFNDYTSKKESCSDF

These compounds were tested against BuChE (E.C.3.1.1.8, from equine serum) (Equus caballus, UniProt P81908). Conditions: read-out: eqBuChE IC50.
In the case of CC1(C)CC(=O)C2=C(C1)OC(N)=C(C#N)C2c1ccc(OCCN2CCOCC2)cc1 (stereo not shown), the pIC50 was < 4.00.
N#CC1=C(N)OC2=C(C(=O)CCC2)C1c1ccc(OCCN2CCOCC2)cc1 (stereo not shown) showed a pIC50 of 4.16.
N#CC1=C(N)Oc2c(c(=O)oc3ccccc23)C1c1ccc(OCCN2CCCCC2)cc1 (stereo not shown) was tested, and the pIC50 was 4.21.
In the case of N#CC1=C(N)Oc2c(c(=O)oc3ccccc23)C1c1ccc(OCCN2CCOCC2)cc1 (stereo not shown), the pIC50 was < 4.00.
O=Cc1ccc(OCCN2CCCCC2)cc1 showed a pIC50 of 4.15.
With O=Cc1ccc(OCCN2CCOCC2)cc1 [3b, 4-(2-morpholinoethoxy)benzaldehyde] the pIC50 was < 4.00.
N#CC(C#N)=Cc1ccc(OCCN2CCOCC2)cc1 [5b] was tested, and the pIC50 was < 4.00.
COC(=O)/C(C#N)=C/c1ccc(OCCN2CCCCC2)cc1 [5c] was tested, and the pIC50 was < 4.00.
In the case of Cc1cc2c(c(=O)o1)C(c1ccc(OCCN3CCCCC3)cc1)C(C#N)=C(N)O2 (stereo not shown) [7e, 2-Amino-7-methyl-5-oxo-4-(4-(2-(piperidin-1-yl)ethoxy)phenyl)-4H,5H-pyrano[4,3-b]pyran-3-carbonitrile], the pIC50 was < 4.00.
Cc1cc2c(c(=O)o1)C(c1ccc(OCCN3CCOCC3)cc1)C(C#N)=C(N)O2 (stereo not shown) [7f, 2-Amino-7-methyl-4-(4-(2-morpholinoethoxy)phenyl)-5-oxo-4H,5H-pyrano[4,3-b]pyran-3-carbonitrile] was tested, and the pIC50 was < 4.00.
